# From patent US6861448B2, “NAD synthetase inhibitors and uses thereof” (priority 1998, dated 2005)
# Protein sequences, listed by entry. Tags and fused reporters are not part of them.
# UniProt P08164, whole entry: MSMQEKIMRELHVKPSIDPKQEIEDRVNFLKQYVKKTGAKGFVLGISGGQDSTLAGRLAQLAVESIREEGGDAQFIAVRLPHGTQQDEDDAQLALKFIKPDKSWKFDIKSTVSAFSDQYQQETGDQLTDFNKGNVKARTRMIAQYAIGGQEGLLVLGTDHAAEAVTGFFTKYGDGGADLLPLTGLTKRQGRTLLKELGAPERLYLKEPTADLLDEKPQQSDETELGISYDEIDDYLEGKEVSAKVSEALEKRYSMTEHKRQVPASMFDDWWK
# Tested on: B. subtilis
# Assay: MIC test (NCCLS broth dilution), growth inhibition
# Format: cell-based
# Conditions: multiple values = two or more tests; tested form: iodide
row,SMILES,"Minimal Inhibitory Concentration (MIC), B. subtilis [µg/mL]"
1,C[N+](C)(C)[C@@H](Cc1ccccc1)C(=O)NCCCCCCCCOc1ccc(OCc2cccc(Cl)c2)cc1,<0.39

# Target: NAD synthetase (Bacillus subtilis, UniProt P08164)
# Assay: NAD synthetase coupled enzyme assay
# Format: biochemical
# Conditions: read-out: IC50 Mean; NAD synthetase 2.0 μg/mL; 0.1 mM NaAD; 0.2 mM ATP; pH 8.5; tested form: iodide
row,SMILES,IC50 [µM]
1,COc1ccc(C(=O)Oc2ccc(OCCCCCCCCOC(=O)C(Cc3ccccc3)[N+](C)(C)C)cc2)cc1 (stereo not shown),17
2,COC(=O)c1cc2cc(OCc3ccccc3)ccc2n1CCCCCCCNC(=O)Cc1ccc([N+](C)(C)C)cc1,36.2
3,COC(=O)c1ccc(OCc2ccccc2)cc1OCCCCCCCCOC(=O)Cc1ccc([N+](C)(C)C)cc1,42.1
4,C[N+](C)(C)C(Cc1ccccc1)C(=O)NCCCCCCCCOc1ccc(OC(=O)c2c(F)cccc2F)cc1 (stereo not shown),26.2
5,C[N+](C)(C)C(Cc1ccc(O)cc1)C(=O)OCCCCCCCn1ccc2cc(OCc3ccccc3)ccc21 (stereo not shown),20.2
6,C[N+](C)(C)C(Cc1ccccc1)C(=O)NCCCCCCCCOc1ccc(OC(=O)c2ccccc2Cl)cc1 (stereo not shown),18.1
7,COC(=O)c1cc2cc(OCc3ccccc3)ccc2n1CCCCCCCCNC(=O)Cc1ccc([N+](C)(C)C)cc1,36.2
8,C[n+]1cccc(C(=O)NCCCCCCCCOc2ccc(OC(=O)c3ccc(Cl)cc3Cl)cc2)c1,23.2
9,C[n+]1cccc(C(=O)NCCCCCCCCOc2ccc(OC(=O)c3cc(Cl)cc(Cl)c3)cc2)c1,27.7
10,C[N+](C)(C)C(Cc1ccccc1)C(=O)OCCCCCCCCOc1ccc(OC(=O)c2ccc(N=[N+]=[N-])cc2)cc1 (stereo not shown),16.6
11,C[N+](C)(C)c1ccc(CC(=O)OCCCCCCCCOc2ccc(OCc3ccc(Cl)cc3)cc2)cc1,16
12,C[n+]1cccc(C(=O)NCCCCCCCCOc2ccc(OC(=O)c3cccc(Cl)c3)cc2)c1,17.9
13,COc1ccc(CC(C(=O)OCCCCCCCn2ccc3cc(OCc4ccccc4)ccc32)[N+](C)(C)C)cc1 (stereo not shown),23.9
14,C[n+]1cccc(C(=O)NCCCCCCCCOc2ccc(OC(=O)c3ccccc3Cl)cc2)c1,47.7
15,COC(=O)c1cc2cc(OCc3ccccc3)ccc2n1CCCCCCCNC(=O)c1ccc[n+](C)c1,36.2
16,C[n+]1cccc(C(=O)OCCCCCCCCn2ccc3cccc(OCc4ccccc4)c32)c1,36.2
17,C[N+](C)(C)C(Cc1ccccc1)C(=O)OCCCCCCCCOc1ccc(OC(=O)c2ccc([N+](=O)[O-])cc2)cc1 (stereo not shown),16
18,COC(=O)c1cc2cc(OCc3ccccc3)ccc2n1CCCCCCCOC(=O)c1ccc[n+](C)c1,36.2
19,C[N+](C)(C)c1ccc(CC(=O)OCCCCCCCCCCCCOc2ccc(OCc3ccccc3)cc2)cc1,50.7
20,C[N+](C)(C)c1ccc(CC(=O)OCCCCCCCCCCOc2ccc(OCc3ccccc3)cc2)cc1,26.5
21,CSCC(C(=O)OCCCCCCCn1ccc2cc(OCc3ccccc3)ccc21)[N+](C)(C)C (stereo not shown),34.2
22,C[n+]1cccc(C(=O)OCCCCCCCCOc2cccc(OCc3ccccc3)c2)c1,36.2
23,C[N+](C)(C)[C@@H](Cc1ccccc1)C(=O)NCCCCCCCCOc1ccc(OCc2cccc(Cl)c2)cc1,31.3
24,C[N+](C)(C)c1ccc(CC(=O)NCCCCCCCCOc2ccc(OC(=O)c3ccc(Cl)c(Cl)c3)cc2)cc1,19
25,COc1cccc(COc2ccc(OCCCCCCCCOC(=O)Cc3ccc([N+](C)(C)C)cc3)cc2)c1,22.5
26,C[N+](C)(C)c1ccc(CC(=O)OCCCCCCCCOc2ccc3c(c2)C(=O)CC(c2ccccc2)O3)cc1 (stereo not shown),29.2
27,CC(C)Oc1ccc(C(=O)Oc2ccc(OCCCCCCCCNC(=O)c3ccc[n+](C)c3)cc2)cc1,16.8
